Data published in ChEMBL document CHEMBL1926574, “Synthesis and biological evaluation of a new series of 1,2,4-triazolo[1,5-a]-1,3,5-triazines as human A(2A) adenosine receptor antagonists with improved water solubility” (J Med Chem, 2011).

Key:
[1] = molecular target: T1, Adenosine receptor A2b (Homo sapiens) (UniProt P29275); assay: Antagonist activity at human adenosine A2B receptor; type: functional
T1 sequence (whole entry): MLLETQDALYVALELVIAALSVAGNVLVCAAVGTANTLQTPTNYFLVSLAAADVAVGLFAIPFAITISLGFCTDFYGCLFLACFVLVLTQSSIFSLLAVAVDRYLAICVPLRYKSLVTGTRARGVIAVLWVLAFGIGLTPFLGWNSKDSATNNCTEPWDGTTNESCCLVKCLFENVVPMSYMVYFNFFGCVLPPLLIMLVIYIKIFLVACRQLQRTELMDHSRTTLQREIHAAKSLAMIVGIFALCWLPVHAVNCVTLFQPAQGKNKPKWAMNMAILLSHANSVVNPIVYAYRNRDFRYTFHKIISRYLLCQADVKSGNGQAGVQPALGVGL

[2] = species on record: Homo sapiens; assay: Selectivity ratio of Ki for human adenosine A1 receptor to Ki for human adenosine A2A receptor

Antagonist potency (inhibitory concentration) [1]	SMILES	Ratio Ki [2]
0.028 µM	Nc1nc(NCCc2ccc(O)cc2)nc2nc(-c3ccco3)nn12	–
–	NCC1CCC(CNc2nc(N)n3nc(-c4ccco4)nc3n2)CC1.O=C(O)C(F)(F)F (stereo not drawn)	79
–	NCCOCCOCCNc1nc(N)n2nc(-c3ccco3)nc2n1.O=C(O)C(F)(F)F	67
